pKi: −log10 of the molar value.
Target: dopamine D2 receptor (human D2long) (Homo sapiens, UniProt P14416)
Experiment: radioligand competition vs [3H]MCL-536 on CHO-D2long membranes
Type: binding

Protein sequences, listed by entry. Tags and fused reporters are not part of them.
UniProt P14416, whole entry: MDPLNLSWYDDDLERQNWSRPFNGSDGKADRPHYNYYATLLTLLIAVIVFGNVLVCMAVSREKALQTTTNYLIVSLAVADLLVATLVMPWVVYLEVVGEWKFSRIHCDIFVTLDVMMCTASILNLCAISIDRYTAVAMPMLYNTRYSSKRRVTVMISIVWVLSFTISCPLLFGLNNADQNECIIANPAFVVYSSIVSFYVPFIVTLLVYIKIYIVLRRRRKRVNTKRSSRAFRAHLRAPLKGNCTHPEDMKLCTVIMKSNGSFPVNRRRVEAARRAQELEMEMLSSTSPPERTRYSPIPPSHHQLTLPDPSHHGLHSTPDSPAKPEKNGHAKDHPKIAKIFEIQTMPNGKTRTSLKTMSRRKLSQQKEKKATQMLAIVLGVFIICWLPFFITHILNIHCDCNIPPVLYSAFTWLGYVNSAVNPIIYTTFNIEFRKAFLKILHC

pKi: 9.05
Structure (SMILES): CCN1CCC[C@H]1CNC(=O)c1c(O)c(Cl)cc(Cl)c1OC [raclopride]
